This passage reports cAMP concentration results from patent US8835442B2, “3-substituted 7-imino-2-thioxo-3, 7-dihydro-2H-thiazolo [4,5-di pyrimidin-6-yl—and process for preparation thereof” (Council of Scientific & Industrial Research, priority 2009, dated 2014).

The assay has as its target T1, A2A receptor (Homo sapiens, UniProt P29274).
T1 construct: host or cells: HEK 293
Kind of assay: cAMP functional assay in forskolin-pretreated HEK 293 cells. The class given is cell-based. The settings on record: 25 μM forskolin 2 h, then 100 nM compound for 24 h. Here is the method:
To determine the modulation in cAMP concentrations, cells were pre-treated with Forskolin. Forskolin is commonly used to activate adenylyl cyclase, so as to raise the levels of cAMP, in the various cell physiology experiments. […] Cells were washed with ice-cold PBS (pH 7.4). Further, cells were treated with 0.1M HCl, incubated for 10 minutes and visually inspected to verify cell lysis. Lysed cells were centrifuged at 1000 rpm at room temperature and the supernatant was used directly for cAMP assay using direct cAMP assay kit. All standards and samples were run in duplicate. […]
The average net O.D. bound for each standard and sample was calculated using formula; Average Net OD=Average bound OD−Average NSB OD
The binding of each pair of standard wells as a percentage of the maximum binding well (Bo) was calculated using the formula; Percent Bound=Net OD/Net Bo OD×100
Standard curve was prepared using Logit-Log Paper plot by drawing percent bound (B/Bo) versus concentration of cAMP for the standards. The concentration of the cAMP in the samples was determined by interpolation.
Binding parameters were estimated by the computerized non-linear fitting program Graph Pad (Prism 4.0). […] Data were expressed as geometric means with 95% confidence limits in parentheses. […]

As to `Nc1nc2c(cnn2CCc2ccccc2)c2nc(-c3ccco3)nn12` [SCH58261, reference compound], the cAMP concentration stood at 0.25 nM.
